Data reported in ChEMBL document CHEMBL4825767, “Development of 2-(5,6,7-Trifluoro-1H-Indol-3-yl)-quinoline-5-carboxamide as a Potent, Selective, and Orally Available Inhibitor of Human Androgen Receptor Targeting Its Binding Function-3 for the Treatment of Castration-Resistant Prostate Cancer” (J Med Chem, 2021).

Sequences of proteins named here, by UniProt entry; tags and fusion partners are left off. A change or cut given only in a name is not applied to a line headed by its entry.
UniProt P10275: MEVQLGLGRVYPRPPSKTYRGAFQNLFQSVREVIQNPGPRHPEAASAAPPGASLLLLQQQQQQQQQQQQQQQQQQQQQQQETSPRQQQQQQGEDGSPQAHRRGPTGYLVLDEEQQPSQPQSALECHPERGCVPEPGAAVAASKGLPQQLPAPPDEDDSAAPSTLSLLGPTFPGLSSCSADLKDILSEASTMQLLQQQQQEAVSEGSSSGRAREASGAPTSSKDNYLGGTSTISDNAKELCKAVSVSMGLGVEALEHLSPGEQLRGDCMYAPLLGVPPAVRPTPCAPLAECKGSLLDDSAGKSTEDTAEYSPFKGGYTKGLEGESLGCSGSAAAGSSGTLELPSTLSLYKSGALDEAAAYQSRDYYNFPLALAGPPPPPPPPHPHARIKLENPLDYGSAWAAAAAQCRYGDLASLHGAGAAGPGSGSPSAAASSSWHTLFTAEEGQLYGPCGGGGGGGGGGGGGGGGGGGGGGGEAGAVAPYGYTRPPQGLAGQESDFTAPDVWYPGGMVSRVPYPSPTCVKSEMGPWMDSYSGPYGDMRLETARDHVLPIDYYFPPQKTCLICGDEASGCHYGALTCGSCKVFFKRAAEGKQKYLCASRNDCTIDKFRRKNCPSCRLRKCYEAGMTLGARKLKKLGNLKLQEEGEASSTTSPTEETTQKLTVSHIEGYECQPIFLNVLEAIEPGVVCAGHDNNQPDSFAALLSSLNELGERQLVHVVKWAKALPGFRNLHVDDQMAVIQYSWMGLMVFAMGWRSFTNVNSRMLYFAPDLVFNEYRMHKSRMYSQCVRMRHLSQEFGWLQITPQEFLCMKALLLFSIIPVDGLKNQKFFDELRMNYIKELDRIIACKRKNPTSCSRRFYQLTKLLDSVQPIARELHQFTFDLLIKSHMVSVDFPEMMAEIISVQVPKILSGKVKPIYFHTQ

Target: Androgen receptor (Homo sapiens, UniProt P10275)

IC50: 100 nM
Compound: Fc1cc(Cl)c2[nH]cc(-c3ccc4ccccc4n3)c2c1
